Measured values published in US20220401481A1, “DOSING REGIMENS FOR THE MOBILIZATION OF HEMATOPOIETIC STEM AND PROGENITOR CELLS” (Magenta Therapeutics, Inc., priority 2019, published 2022).

Experiment: Phase 1 clinical trial: treatment emergent adverse events
Conditions: Part A; MGTA-145 0.0075-0.3 mg/kg, n = 24

MGTA-145: CXCR2 agonist; truncated Gro-β with deletion of the first four N-terminal amino acids (SEQ ID NO: 2)
Back pain / Musculoskeletal pain: 19 (79.2) n (%) | Subjects with any drug related TEAE: 19 (79.2) n (%)
